{"source": "patent US6913900B2", "about": "“Plasma prekallikrein activation and kallikrein production assay” (Nippon Zoki Pharmaceutical Co., Ltd., priority 2001, dated 2005)", "tested_on": "prekallikrein activating factor (PK activation)", "experiment": "Inhibition profile of PK activation (prekallikrein activation assay, kallikrein substrate S-2302, O.D. 405 nm)", "assay_type": "biochemical, human", "conditions": "inhibitor concentration 2 mM", "description": "In embodiments of the invention the reaction time may be fixed or “set.” The reaction time can be “set” by stopping the production of kallikrein, for example, by adding a prekallikrein activation inhibitor to the system of the present invention after a desired reaction time. Also, by adding a coloring or fluorescent synthetic substrate to the reaction system from the start or beginning, the produced amount of kallikrein (coloring or fluorescent intensity) may be observed at different lapses of time. […] When the reaction is stopped, the produced kallikrein can be quantitatively determined using an enzymatic activity of kallikrein as a target, for example, by applying a substrate to kallikrein.\nWhen the reaction is stopped, the produced plasma kallikrein can be determined using an enzymatic activity of the plasma kallikrein as a target by utilizing a substrate to the plasma kallikrein.\nAssays were performed in HEPES buffered saline (HBS) (10 mM Hepes, 137 mM NaCl, 4 mM KCl, 11 mM D-glucose, and 0.5 mg/ml RIA grade bovine serum albumin, pH 7.4), with a kallikrein specific substrate (0.6 mM S-2302). […] The absorbance (O.D. at 405 nm or optical density at 405 nm) was monitored at room temperature on a Molecular Devices (Sunnyvale, Calif.) THERMOmax microplate reader. […]"}
{"smiles": "O=S(=O)(F)Cc1ccccc1", "note": "[PMSF]", "values": [{"measurement": "% inhibition of PK activation", "result": 5, "unit": "%"}]}
